Values quoted from earlier work, collected in article PMC5302413, “Bifunctional peptide-based opioid agonist/nociceptin antagonist ligand for dual treatment of nociceptive and neuropathic pain” (Pain, 2016).

Tested on: rat model of neuropathic pain
Settings: IV, cited from earlier work

CN(C)[C@]1(c2ccccc2)CC[C@]2(CC1)OCCc1c3cc(F)ccc3[nH]c12
ED50 in rat model of neuropathic pain, converted (corresponding to 0.8 μg/kg): 0.002 µmol/kg | ED50 in rat model of neuropathic pain: 0.8 µg/kg
